From ChEMBL document CHEMBL4842367, “Strategies toward Discovery of Potent and Orally Bioavailable Proteolysis Targeting Chimera Degraders of Androgen Receptor for the Treatment of Prostate Cancer” (J Med Chem, 2021) come the findings set out here.

The chains behind the UniProt entries cited, without tags or fusion partners. Where a name states a change or a piece, a line headed by the entry shows the natural chain unless it says otherwise.
UniProt P10275: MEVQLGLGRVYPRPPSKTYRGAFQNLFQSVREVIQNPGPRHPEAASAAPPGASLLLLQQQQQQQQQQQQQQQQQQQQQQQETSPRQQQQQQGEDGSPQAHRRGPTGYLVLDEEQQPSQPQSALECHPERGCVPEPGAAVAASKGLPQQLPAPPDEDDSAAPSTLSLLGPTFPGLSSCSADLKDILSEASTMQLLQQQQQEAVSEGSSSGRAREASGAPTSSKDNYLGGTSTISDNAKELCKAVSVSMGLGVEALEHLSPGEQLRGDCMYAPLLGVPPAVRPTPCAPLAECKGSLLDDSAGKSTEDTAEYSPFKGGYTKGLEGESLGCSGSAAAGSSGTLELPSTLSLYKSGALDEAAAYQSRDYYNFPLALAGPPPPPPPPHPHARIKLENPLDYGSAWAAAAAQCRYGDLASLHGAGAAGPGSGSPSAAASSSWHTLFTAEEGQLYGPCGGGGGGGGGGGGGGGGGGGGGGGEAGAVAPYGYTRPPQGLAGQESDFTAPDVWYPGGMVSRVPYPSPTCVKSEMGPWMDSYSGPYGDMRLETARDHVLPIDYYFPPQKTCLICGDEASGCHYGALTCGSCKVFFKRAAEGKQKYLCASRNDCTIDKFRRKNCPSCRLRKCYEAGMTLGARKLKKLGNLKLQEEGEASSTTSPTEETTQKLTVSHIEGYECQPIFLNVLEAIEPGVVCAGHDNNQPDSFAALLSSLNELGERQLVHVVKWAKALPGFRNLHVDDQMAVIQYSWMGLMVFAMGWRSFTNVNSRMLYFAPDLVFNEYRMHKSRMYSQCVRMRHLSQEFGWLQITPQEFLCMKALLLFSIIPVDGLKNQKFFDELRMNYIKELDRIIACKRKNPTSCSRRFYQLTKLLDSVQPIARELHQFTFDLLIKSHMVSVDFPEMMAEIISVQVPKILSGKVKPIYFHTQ
UniProt Q96SW2: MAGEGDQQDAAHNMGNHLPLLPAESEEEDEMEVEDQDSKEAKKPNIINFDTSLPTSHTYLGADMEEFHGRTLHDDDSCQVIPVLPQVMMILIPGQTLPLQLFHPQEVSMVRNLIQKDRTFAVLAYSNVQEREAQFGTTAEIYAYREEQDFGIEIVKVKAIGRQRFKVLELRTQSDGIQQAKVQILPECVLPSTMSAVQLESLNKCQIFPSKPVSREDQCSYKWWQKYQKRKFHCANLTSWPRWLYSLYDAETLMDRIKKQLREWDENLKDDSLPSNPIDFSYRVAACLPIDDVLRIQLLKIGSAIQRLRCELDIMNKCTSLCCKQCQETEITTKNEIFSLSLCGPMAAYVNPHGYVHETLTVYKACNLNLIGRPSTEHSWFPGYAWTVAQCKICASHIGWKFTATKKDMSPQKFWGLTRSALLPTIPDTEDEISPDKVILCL

The target in assay [1] is T1, Protein cereblon/Androgen receptor (Homo sapiens, UniProt P10275+Q96SW2). The note with it: VCaP, time 24.0 hrs.
Assay [2] deals with Protein cereblon/Androgen receptor (Homo sapiens), P10275+Q96SW2 [T878A]. The note with it: LNCaP, time 24.0 hrs.
The target of assay [3] is T1, Protein cereblon/Androgen receptor. The assay can be described thus: Protac activity at CRBN/AR in human VCaP cells assessed as induction of AR degradation at 0.01 uM measured after 24 hrs by western blot analysis relative to control. The class given is cell-based. In short, it runs like this: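 VCaP cells treated 24 h at 1, 10, 100 and 1000 nM; lysed in RIPA with protease/phosphatase inhibitors, run on 4–12% SDS-PAGE, blotted to PVDF. AR bands background-subtracted and normalized to loading control; degradation relative to DMSO, average of three independent experiments.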

The target is the same in assay [4]. The assay can be described thus: Protac activity at CRBN/AR in human VCaP cells assessed as induction of AR degradation at 0.001 uM measured after 24 hrs by western blot analysis relative to control. The class given is cell-based.
Assay [5] shares this target. The assay can be described thus: Protac activity at CRBN/AR in human VCAP cells assessed as induction of AR degradation at 1 uM by western blot analysis relative to control. It is filed as cell-based. The note with it: time 24.0 hrs.
The target is the same in assay [6]. The assay can be described thus: Protac activity at CRBN/AR in human VCaP cells assessed as induction of AR degradation at 0.1 uM measured after 24 hrs by western blot analysis relative to control. The class given is cell-based.

Turning to `CC1(C)[C@H](NC(=O)c2ccc(N3CCC(N4CCN(c5ccc6c(c5)C(=O)N(C5CCC(=O)NC5=O)C6=O)CC4)CC3)cc2)C(C)(C)[C@H]1Oc1ccc(C#N)c(Cl)c1` (some centres undefined), the EC90 in assay [1] came to 2 nM; in assay [2], 10 nM.

With `CC1(C)[C@H](NC(=O)c2ccc(N3CCN(C4CCN(c5ccc6c(c5)C(=O)N(C5CCC(=O)NC5=O)C6=O)CC4)CC3)cc2)C(C)(C)[C@H]1Oc1ccc(C#N)c(Cl)c1` (some centres undefined), the concentration for an effect of 90% (EC90) in assay [1] stood at 2 nM; in assay [2], 52 nM.

For `CC1(C)[C@H](NC(=O)c2ccc(N3CCC(CN4CCN(c5ccc6c(c5)C(=O)N(C5CCC(=O)NC5=O)C6=O)CC4)CC3)cc2)C(C)(C)[C@H]1Oc1ccc(C#N)c(Cl)c1` (some centres undefined), the EC90 in assay [1] stood at 2 nM; in assay [2], 10 nM.

Take `CC1(C)[C@H](NC(=O)c2ccc(N3CCN(CC4CCN(c5ccc6c(c5)C(=O)N(C5CCC(=O)NC5=O)C6=O)CC4)CC3)cc2)C(C)(C)[C@H]1Oc1ccc(C#N)c(Cl)c1` (some centres undefined): the Activity in assay [3] came to 94%; in assay [4], 62%; in assay [5], 96%; in assay [6], 98%. Besides, the EC90 is 3 nM in assay [1] and 25 nM in assay [2].

Take `CC1(C)[C@H](NC(=O)c2ccc(N3CCN(CC4CN(c5ccc6c(c5)C(=O)N(C5CCC(=O)NC5=O)C6=O)C4)CC3)cc2)C(C)(C)[C@H]1Oc1ccc(C#N)c(Cl)c1` (some centres undefined): the concentration for an effect of 90% (EC90) in assay [1] is 3 nM; in assay [2], 41 nM.
